Data: patent publication US20230137010A1, “LONG-ACTING APOMORPHINE FORMULATIONS AND INJECTORS FOR THERAPEUTIC DELIVERY OF THE SAME” (Scienture, Inc., priority 2020, published 2023)
Counter-ions that a name gives are not always drawn.

Test: Solubility of APO-HCL in organic solvents (O/W microencapsulation solvents and co-solvents for DCM)
Conditions: DCM/DMSO co-solvent systems with only 10-20% DMSO

Structure (SMILES): CN1CCc2cccc3c2[C@H]1Cc1ccc(O)c(O)c1-3 [APO-HCL, apomorphine hydrochloride hemihydrate]
- Solubility for preparation of microspheres with high apomorphine loading: insufficient
